To fix the notation:
B1: Glutamate receptor 2 (Rattus norvegicus (Rat)), P19491 (parent)
chain: MQKIMHISVLLSPVLWGLIFGVSSNSIQIGGLFPRGADQEYSAFRVGMVQFSTSEFRLTPHIDNLEVANSFAVTNAFCSQFSRGVYAIFGFYDKKSVNTITSFCGTLHVSFITPSFPTDGTHPFVIQMRPDLKGALLSLIEYYQWDKFAYLYDSDRGLSTLQAVLDSAAEKKWQVTAINVGNINNDKKDETYRSLFQDLELKKERRVILDCERDKVNDIVDQVITIGKHVKGYHYIIANLGFTDGDLLKIQFGGANVSGFQIVDYDDSLVSKFIERWSTLEEKEYPGAHTATIKYTSALTYDAVQVMTEAFRNLRKQRIEISRRGNAGDCLANPAVPWGQGVEIERALKQVQVEGLSGNIKFDQNGKRINYTINIMELKTNGPRKIGYWSEVDKMVVTLTELPSGNDTSGLENKTVVVTTILESPYVMMKKNHEMLEGNERYEGYCVDLAAEIAKHCGFKYKLTIVGDGKYGARDADTKIWNGMVGELVYGKADIAIAPLTITLVREEVIDFSKPFMSLGISIMIKKPQKSKPGVFSFLDPLAYEIWMCIVFAYIGVSVVLFLVSRFSPYEWHTEEFEDGRETQSSESTNEFGIFNSLWFSLGAFMQQGCDISPRSLSGRIVGGVWWFFTLIIISSYTANLAAFLTVERMVSPIESAEDLSKQTEIAYGTLDSGSTKEFFRRSKIAVFDKMWTYMRSAEPSVFVRTTAEGVARVRKSKGKYAYLLESTMNEYIEQRKPCDTMKVGGNLDSKGYGIATPKGSSLGNAVNLAVLKLNEQGLLDKLKNKWWYDKGECGSGGGDSKEKTSALSLSNVAGVFYILVGGLGLAMLVALIEFCYKSRAEAKRMKVAKNPQNINPSSSQNSQNFATYKEGYNVYGIESVKI

Results on two variants are retold here after IntAct's records for PubMed 9768844.

This assay covers variants of B1. To be noted: with q9wtw1-3 Grip2, Q9WTW1-3.
Consider I883A, for which the “effect of a mutation on the interaction” value was “disrupting interaction”.

For V881A, the “effect of a mutation on the interaction” value was “disrupting interaction”.
